{
  "source": "patent US11473045B2",
  "about": "“Device for in-vitro modelling in-vivo tissues of organs” (priority 2013, dated 2022)",
  "test_system": "Lung bronchial epithelial cells (16HBEo-)",
  "experimental": "FIG. 14 illustrates the effects of a physiologic (10% linear), cyclic mechanical strain on the permeability of an epithelial barrier. Lung bronchial epithelial cells (16HBEo-) were seeded at a density of 250'000 cells/cm^2 onto the fibronectin-coated culturing membrane. The cells were allowed to adhere and to grow for 72 h. The cells were exposed to cyclic strain (10% linear, 0.2 Hz) for 19 h, whereas the control was kept at static conditions. […] After 2 h of incubation, the permeability of each molecule was measured with a fluorescence multiplate reader (Tecan Infinite M1000; Ex:460/Em:515 & Ex:553/Em:627).",
  "data": [
    {"substance": "RITC-Dextran", "values": [
      {"measurement": "transmembrane permeability of stretched cells compared to control cells in static conditions", "value": "no significant permeability differences"}
    ]}
  ]
}
